Results reported in patent US20110275576A1 (published 2011).

Tested on: A549 cells
Assay: MTS assay, proliferation of A549 cells
Type: cell-based, human
Conditions: statement on Table 1

For `CC1=C2C[C@H]3[C@@H](CC=C4C[C@@H](O)CC[C@@]43C)[C@@H]2CC[C@]12O[C@@H]1C[C@H](C)CN[C@H]1[C@H]2C` [cyclopamine, reference compound], the “proliferation of A549 cells” value was “reduced the proliferation of A549 cells”.
